Results on 1 substance are retold here after paper PMC4980677.

This assay addresses SAMHD1_(115-626) WT (HD domain construct of human SAMHD1) (human) (UniProt Q9Y3Z3).

Take “SAMHD1_(115-626) WT (HD domain construct of human SAMHD1) (from UniProt Q9Y3Z3 115-626) (domain or fragment)”: the rate of dTTP hydrolysis (NMR-based dNTPase assay, 1 mM dTTP, 1 μM SAMHD1) against GTP concentration, from no GTP to above 20 μM; apparent half-rise at 1.5 μM GTP is > 1 s⁻¹.
